{
  "sequences": {"note": "The chains behind the UniProt entries cited, without tags or fusion partners.", "UniProt Q13547, whole entry": "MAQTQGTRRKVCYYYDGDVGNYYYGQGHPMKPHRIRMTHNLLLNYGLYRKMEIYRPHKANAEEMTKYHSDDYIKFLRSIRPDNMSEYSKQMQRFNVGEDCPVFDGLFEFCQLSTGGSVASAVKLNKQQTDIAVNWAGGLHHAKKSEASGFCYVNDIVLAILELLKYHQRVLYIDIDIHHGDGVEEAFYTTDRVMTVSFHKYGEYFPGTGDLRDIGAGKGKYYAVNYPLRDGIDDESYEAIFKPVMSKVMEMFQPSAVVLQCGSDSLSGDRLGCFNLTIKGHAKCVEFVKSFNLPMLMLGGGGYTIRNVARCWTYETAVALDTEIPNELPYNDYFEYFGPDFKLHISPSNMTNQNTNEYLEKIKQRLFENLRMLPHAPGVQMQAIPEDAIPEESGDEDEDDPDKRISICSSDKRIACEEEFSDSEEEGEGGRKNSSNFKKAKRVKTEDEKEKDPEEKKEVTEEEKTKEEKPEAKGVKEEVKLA"},
  "source": "patent US10766889B2",
  "about": "“Aryl-2,2′-tandem bisthiazole compound and preparation method and use thereof” (SHANGHAI INSTITUTE OF MATERIA MEDICA, CHINESE ACADEMY OF …, priority 2016, dated 2020)",
  "key": {"human HDAC1": {"target": "T1, human HDAC1 (Homo sapiens, UniProt Q13547)", "T1 construct": "made in house", "test": "Inhibition activity test of histone deacetylase 1 (fluorescence, Ac-Lys-Tyr-Lys(Ac)-AMC substrate)", "type": "biochemical", "settings": "mean of 3 experiments"}, "HDAC": {"test_system": "HDAC", "settings": "read-out: IC50 enzyme activity; WO2012152208, background; cited from earlier work"}},
  "data": [
    {"compound": "CC(NC(=O)c1nc(-c2nccs2)sc1C1CC1)c1ccc(C(=O)NO)cc1", "note": "(stereo not drawn) [Compound H01]", "values": [
      {"measurement": "IC50", "setting": "human HDAC1", "result": "81 ± 15.1", "unit": "nM"}
    ]},
    {"compound": "C[C@H](NC(=O)c1nc(-c2nccs2)sc1C1CC1)c1ccc(C(=O)NO)cc1", "note": "[Compound H02]", "values": [
      {"measurement": "IC50", "setting": "human HDAC1", "result": "40.9 ± 0.41", "unit": "nM"}
    ]},
    {"compound": "CC(C)[C@H](NC(=O)c1nc(-c2nccs2)sc1C1CC1)c1ccc(C(=O)NO)cc1", "note": "[Compound H04]", "values": [
      {"measurement": "IC50", "setting": "human HDAC1", "result": "38.2 ± 7.29", "unit": "nM"}
    ]},
    {"compound": "Cc1cnc(-c2nc(C(=O)N[C@@H](C)c3ccc(C(=O)NO)cc3)c(C3CC3)s2)s1", "note": "[Compound H05]", "values": [
      {"measurement": "IC50", "setting": "human HDAC1", "result": "19.9 ± 0.47", "unit": "nM"}
    ]},
    {"compound": "Cc1csc(-c2nc(C(=O)N[C@@H](C)c3ccc(C(=O)NO)cc3)c(C3CC3)s2)n1", "note": "[Compound H06]", "values": [
      {"measurement": "IC50", "setting": "human HDAC1", "result": "16.5 ± 0.5", "unit": "nM"}
    ]},
    {"compound": "C[C@H](NC(=O)c1nc(-c2nc3c(s2)CCCC3)sc1C1CC1)c1ccc(C(=O)NO)cc1", "note": "[Compound H07]", "values": [
      {"measurement": "IC50", "setting": "human HDAC1", "result": "14.7 ± 0.67", "unit": "nM"}
    ]},
    {"compound": "C[C@H](NC(=O)c1nc(-c2ncc(-c3ccc(F)cc3)s2)sc1C1CC1)c1ccc(C(=O)NO)cc1", "note": "[Compound H09]", "values": [
      {"measurement": "IC50", "setting": "human HDAC1", "result": "2.64 ± 0.02", "unit": "nM"}
    ]},
    {"compound": "COc1ccc(-c2cnc(-c3nc(C(=O)N[C@@H](C)c4ccc(C(=O)NO)cc4)c(C4CC4)s3)s2)cc1", "note": "[Compound H10]", "values": [
      {"measurement": "IC50", "setting": "human HDAC1", "result": "3.57 ± 0.4", "unit": "nM"}
    ]},
    {"compound": "O=C(CCNC(=O)c1nc(-c2nccs2)sc1C1CC1)NO", "note": "[bexanostat]", "values": [
      {"measurement": "IC50", "setting": "HDAC", "result": "< 400", "unit": "nM"}
    ]}
  ]
}
